According to US11541029B2, “High penetration compositions and their applications” (Techfields Pharma Co., Ltd., priority 2008, dated 2023):

Details: male, rat, in vivo

ibuprofen in Brain (1 hr): 12.2 ± 5.2 nmol/g
SMILES: CC(C)Cc1ccc(C(C)C(=O)O)cc1 (stereo not shown) [ibuprofen, 2-(ρ-isobutylphenyl)propionic acid, reference compound]
